{
  "source": "patent US8778342B2",
  "about": "“Antibody therapy” (Immunomedics, Inc., priority 2002, dated 2014)",
  "system": "TT tumors",
  "test": "Naked anti-CEA MAb alone on growth of TT tumors in nude mice",
  "conditions": "for T-test analysis of the area under the growth curves versus untreated: then weekly",
  "data": [
    {"substance": "hMN-14: humanized (CDR-grafted) Class III anti-CEA monoclonal antibody MN-14, naked", "values": [
      {"measurement": "T-test analysis of the area under the growth curves versus untreated", "setting": "0.25 mg starting 1 day after TT cells", "value": "significant growth inhibition"},
      {"measurement": "T-test analysis of the area under the growth curves versus untreated", "setting": "0.25 mg starting 3 days after TT cells", "value": "significant growth inhibition"},
      {"measurement": "T-test analysis of the area under the growth curves versus untreated", "setting": "0.25 mg starting 7 days after TT cells, p=0.057 at 5 weeks", "value": "did not reach the 95% confidence limit"},
      {"measurement": "mean tumor sizes and area under the growth curves versus untreated", "setting": "all weekly doses 0.125 mg to 2.0 mg/mouse from day 1", "value": "Significant differences"}
    ]}
  ]
}
